According to PMC2935290 (Journal of immunology (Baltimore, Md. : 1950), 2010):

Target: T1, HLA-DPB1*0402 (Homo sapiens, UniProt P04440+P20036, A65V/A84D/A85E/L207M)
T1 sequence (P04440 30-258 A65V/A84D/A85E): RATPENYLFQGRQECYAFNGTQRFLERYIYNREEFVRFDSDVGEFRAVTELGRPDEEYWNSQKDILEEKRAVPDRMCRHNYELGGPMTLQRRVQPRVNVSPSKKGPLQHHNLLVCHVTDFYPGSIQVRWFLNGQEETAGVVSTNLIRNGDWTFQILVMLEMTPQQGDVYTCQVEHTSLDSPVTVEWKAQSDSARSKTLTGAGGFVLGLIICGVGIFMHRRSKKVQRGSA
T1 sequence (P20036 29-260): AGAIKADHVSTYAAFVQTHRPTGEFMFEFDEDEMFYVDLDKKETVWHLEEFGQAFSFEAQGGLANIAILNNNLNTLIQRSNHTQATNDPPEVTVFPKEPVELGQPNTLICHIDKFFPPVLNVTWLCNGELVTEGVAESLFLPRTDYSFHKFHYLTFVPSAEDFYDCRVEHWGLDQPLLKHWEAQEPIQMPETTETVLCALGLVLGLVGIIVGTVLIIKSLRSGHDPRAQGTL
Experiment: biochemical
Type: binding

CC[C@H](C)[C@H](NC(=O)[C@@H](NC(=O)[C@H](CO)NC(=O)CNC(=O)[C@H](Cc1ccc(O)cc1)NC(=O)[C@H](CC(N)=O)NC(=O)[C@@H](N)CC(N)=O)[C@@H](C)O)C(=O)N[C@@H](CCC(=O)O)C(=O)NCC(=O)N[C@@H](CC(C)C)C(=O)N[C@@H](CC(C)C)C(=O)N[C@@H](CC(=O)O)C(=O)O
IC50: 5.87 µM
